## Yeast mating assay B: variants of the scFv Ab-14

Antigen: PDVDLGDISGINAS, a 14-residue peptide of the SARS-CoV-2 spike HR2 region.

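Phage display of a naive human antibody library on the peptide gave the parent. This is the validation round: designs drawn from the data on random variants, tested in the same kind of assay. Their group label is 14L_GP_Gen (GP: Gaussian process model; Gen: genetic algorithm; a sequence that several methods proposed may carry one label only). In AlphaSeq, yeast of one mating type display the scFv and yeast of the other type display the target. After mating in shaken culture at 30 °C for 16 h, diploids were selected and their barcode pairs sequenced. A regression on co-assayed BCL2-family reference pairs converts the normalised counts of each replicate to an apparent Kd. Mating was done six times.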

Each scFv is VH, a 15-residue (Gly4Ser)3 linker, VL, as in the parent Ab-14, and differs from it in the CDRs of the light chain only.
VH: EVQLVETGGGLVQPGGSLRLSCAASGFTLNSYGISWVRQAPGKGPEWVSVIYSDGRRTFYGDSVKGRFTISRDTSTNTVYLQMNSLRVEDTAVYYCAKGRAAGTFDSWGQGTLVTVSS
VL: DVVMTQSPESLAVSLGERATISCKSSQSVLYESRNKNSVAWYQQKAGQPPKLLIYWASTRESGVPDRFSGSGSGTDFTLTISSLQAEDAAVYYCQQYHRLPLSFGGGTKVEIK

Substitutions are numbered in sequence along the VL above, starting at 1 (not Kabat).
Numbers give log10(Kd / nM), so 0 is 1 nM and 3 is 1 µM. Smaller is tighter.
A mean of the replicates is given; it leaves out those without a signal.

changes	replicates, log10 nM	log10 Kd (nM), mean	signal with controls
S25L+S38N+W56N+S62Q	0.83 / 0.47 / 0.43 / 0.57 / 0.63 / 0.51	0.57	0/18
S25L+S26P+W56N+T59Q+S62V	-0.28 / -0.37 / -0.43 / -0.53 / -0.36 / -0.43	-0.40	0/18
S25L+V29W+W56N+T59Q+Q96D	-0.17 / -0.29 / -0.26 / -0.26 / -0.41 / -0.17	-0.26	1/18 (3.24)
S25V+L30W+W56D	-0.10 / -0.43 / -0.35 / -0.37 / -0.40 / -0.01	-0.28	0/18
S25L+S26M+V29W+W56N+E61L	0.61 / 0.45 / 0.63 / 0.30 / 0.44 / 0.78	0.54	1/18 (3.54)
S25L+S26Q+V29Q+W56N+E61C	0.20 / 0.24 / 0.10 / 0.14 / 0.08 / 0.13	0.15	0/18
S25L+V29E+W56N	-0.36 / -0.54 / -0.20 / -0.41 / -0.58 / -0.30	-0.40	1/18 (2.28)
S25L+S26E+W56N+E61M	0.10 / -0.02 / -0.14 / -0.13 / -0.10 / 0.13	-0.03	0/18
S25L+V29E+W56N+E61L+S62E	-0.13 / -0.17 / -0.38 / -0.24 / -0.09 / 0.10	-0.15	0/18
K24H+S25L+Y31M+W56N+E61L	-0.15 / -0.01 / -0.12 / -0.29 / -0.27 / -0.09	-0.15	0/18
S25F+W56H+E61C	1.33 / 0.99 / 0.85 / 1.32 / 1.03 / 0.88	1.07	0/18
S25L+S33E+W56S	-0.08 / -0.04 / -0.19 / -0.28 / -0.48 / -0.15	-0.20	1/18 (2.46)
S25L+S26Q+V29Q+W56N+E61L+S62D	0.36 / 0.42 / 0.52 / 0.90 / 0.79 / 0.69	0.61	0/18
S25L+S33D+S38N+W56N+E61M	-0.32 / -0.16 / -0.31 / -0.49 / -0.40 / -0.29	-0.33	0/18
S25V+W56N+Q96D	0.03 / -0.01 / -0.10 / 0.00 / -0.18 / 0.04	-0.04	1/18 (3.08)
S25L+S33E+W56N+S62Q	0.95 / 1.05 / 0.93 / 0.65 / 0.23 / 0.70	0.75	1/18 (1.94)
S25L+S26V+V29E+W56N+T59Q+E61L	-0.18 / -0.19 / -0.12 / -0.40 / -0.27 / -0.12	-0.21	1/18 (2.01)
S25V+V29Q+W56D	-0.02 / -0.17 / -0.10 / 0.07 / 0.00 / -0.13	-0.06	1/18 (2.24)
S25L+V29E+W56D	-0.45 / -0.23 / -0.47 / -0.50 / -0.43 / -0.31	-0.40	1/18 (2.50)
S25L+S38N+W56E+Q96A	0.01 / 0.00 / -0.02 / -0.23 / -0.38 / 0.14	-0.08	3/18 (3.36)
S25L+V29F+W56N+S62V	0.40 / -0.04 / -0.04 / -0.26 / 0.16 / 0.01	0.04	0/18
S25L+S26V+W56D	-0.15 / -0.44 / -0.31 / -0.52 / -0.53 / -0.17	-0.35	2/18 (3.40)
S25L+W56N+S62H	-0.08 / -0.11 / -0.21 / -0.37 / -0.21 / -0.07	-0.18	1/18 (3.18)
S25L+V29T+W56N+T59Q+E61L	0.56 / 0.33 / 0.65 / 0.41 / 0.73 / 0.74	0.57	0/18
S25L+W56E+T59Q+E61L	-0.16 / -0.29 / -0.39 / -0.50 / -0.53 / -0.32	-0.37	1/18 (2.82)
S25L+V29E+W56E+Q96S	0.12 / 0.43 / 0.09 / 0.11 / 0.60 / 0.36	0.28	0/18
S25L+S28L+Y31M+W56N	0.34 / 0.02 / 0.15 / -0.04 / -0.05 / 0.37	0.13	0/18
S25V+V29H+W56D+T59Q	0.48 / 0.37 / 0.33 / 0.17 / 0.32 / 0.63	0.38	1/18 (2.39)
S25L+V29E+Y31G+W56N	-0.38 / -0.13 / -0.51 / -0.50 / -0.20 / -0.10	-0.31	0/18
S25L+S26Q+S33E+W56N	-0.04 / -0.03 / 0.08 / -0.05 / -0.01 / 0.12	0.01	1/18 (3.35)
S25L+Y31M+W56E+S62V	0.00 / -0.10 / -0.33 / -0.34 / -0.29 / 0.09	-0.16	1/18 (1.72)
S25L+S26E+V29F+W56N	-0.17 / -0.28 / -0.24 / -0.48 / -0.49 / -0.24	-0.32	1/18 (3.26)
S25L+S26D+W56E+T59Q	0.23 / -0.05 / 0.11 / 0.04 / -0.04 / 0.33	0.10	2/18 (3.11)
S25L+V29E+W56E+S58N	-0.23 / -0.19 / -0.17 / -0.15 / -0.11 / -0.18	-0.17	2/18 (2.06)
S25L+S26Q+V29H+W56S+E61L	0.10 / 0.45 / 0.48 / -0.24 / 0.30 / 0.64	0.29	2/18 (2.27)
S25L+S26P+V29W+W56S	0.64 / 0.52 / 0.19 / 0.05 / 0.92 / 0.70	0.50	2/18 (2.43)
K24H+S25L+W56H+E61C	0.41 / -0.08 / -0.07 / -0.18 / -0.06 / 0.26	0.05	1/18 (2.16)
S25L+K36F+S38N+W56N	-0.28 / -0.36 / -0.38 / -0.55 / -0.26 / -0.23	-0.34	2/18 (2.85)
S25L+S26D+V29E+W56N	-0.10 / -0.12 / -0.15 / 0.14 / -0.21 / 0.06	-0.06	2/18 (3.30)
S25L+S26Q+W56H	0.05 / 0.14 / 0.03 / -0.16 / 0.07 / -0.14	0.00	1/18 (3.13)
S25L+S26P+V29W+W56N+S62V	0.01 / -0.37 / 0.05 / -0.06 / -0.20 / 0.08	-0.08	0/18

Excerpt, the final 4 entries:

changes	replicates, log10 nM	log10 Kd (nM), mean	signal with controls
S25L+K36F+S38N+W56N	-0.28 / -0.36 / -0.38 / -0.55 / -0.26 / -0.23	-0.34	2/18 (2.85)
S25L+S26D+V29E+W56N	-0.10 / -0.12 / -0.15 / 0.14 / -0.21 / 0.06	-0.06	2/18 (3.30)
S25L+S26Q+W56H	0.05 / 0.14 / 0.03 / -0.16 / 0.07 / -0.14	0.00	1/18 (3.13)
S25L+S26P+V29W+W56N+S62V	0.01 / -0.37 / 0.05 / -0.06 / -0.20 / 0.08	-0.08	0/18

Values of this round are not directly comparable with the first-round values of the same sequences.
The authors' rule: three or more of the six replicates give a measured affinity, fewer mean a poor binder.
Empty control strains, which show no peptide, gave a signal in 4% of pairings with all light chain designs; the median was 2.64 and 95% of these signals were weaker than 1.59. No background was subtracted. Also given: how often the same scFv was detected with the empty control strains, with their mean in brackets.
Of ten entries with the parent sequence, four were seen in most replicates (averages 0.34 to 2.37), three in one and three in none, so single entries are noisy.

From the AlphaSeq antibody data of Li et al. 2023 (doi:10.1038/s41467-023-39022-2), copy in the FLAb collection.